Measurements from patent US5159081A, “Intermediates of peripherally selective N-carbonyl-3,4,4-trisubstituted piperidine opioid antagonists” (Eli Lilly and Company, priority 1991, dated 1992).

The chains behind the UniProt entries cited, without tags or fusion partners.
UniProt P42866, whole entry, looked up: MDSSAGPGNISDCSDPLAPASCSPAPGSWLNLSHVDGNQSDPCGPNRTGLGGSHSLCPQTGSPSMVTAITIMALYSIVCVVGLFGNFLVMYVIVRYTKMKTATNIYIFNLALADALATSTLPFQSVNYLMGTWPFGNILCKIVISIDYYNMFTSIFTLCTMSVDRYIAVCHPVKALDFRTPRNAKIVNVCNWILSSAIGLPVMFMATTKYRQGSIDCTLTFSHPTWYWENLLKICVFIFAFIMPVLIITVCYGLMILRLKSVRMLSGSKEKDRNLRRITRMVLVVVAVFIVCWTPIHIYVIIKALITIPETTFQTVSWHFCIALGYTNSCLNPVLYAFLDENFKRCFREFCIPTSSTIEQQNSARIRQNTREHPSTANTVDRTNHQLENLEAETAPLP
UniProt P33535, whole entry, looked up: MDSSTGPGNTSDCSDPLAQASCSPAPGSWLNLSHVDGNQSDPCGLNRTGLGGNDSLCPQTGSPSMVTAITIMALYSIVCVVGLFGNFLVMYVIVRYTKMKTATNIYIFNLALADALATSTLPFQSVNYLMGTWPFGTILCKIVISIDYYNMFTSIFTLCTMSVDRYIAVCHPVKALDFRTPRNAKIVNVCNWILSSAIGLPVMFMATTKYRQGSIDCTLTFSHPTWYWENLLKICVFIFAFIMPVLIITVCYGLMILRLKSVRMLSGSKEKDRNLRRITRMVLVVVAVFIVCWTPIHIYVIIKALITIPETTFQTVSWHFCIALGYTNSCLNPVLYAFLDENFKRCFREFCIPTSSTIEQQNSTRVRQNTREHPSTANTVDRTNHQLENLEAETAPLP

Experiments:
[1] = molecular target: peripheral opioid receptors (Mus musculus, UniProt P42866); assay: mouse diarrhea test: precipitated diarrhea in morphine-maintained mice (peripheral opioid activity); format: in vivo; settings: subcutaneous or oral, 30 min observation
[2] = molecular target: mu receptor (Rattus norvegicus, UniProt P33535); assay: Naloxone [3H] opioid receptor binding assay (mu receptor); set-up: species or system rat (male Sprague Dawley); settings: [3H]naloxone 0.5 nM, 20 min

In the case of `CC(C)C[C@H](NC(=O)CCC(=O)N(CCN1CCC(C)(c2cccc(O)c2)C(C)C1)c1ccccc1)C(=O)O.Cl.O` (stereo partly shown), the ED50 [1] is reported as 0.05 mg/kg, the “% displacement at 10 nM” value ([2]; 10 nM test compound) is reported as 100% and the “% displacement at 100 nM” value ([2]; 100 nM test compound) is reported as 99%.
For `C[C@H]1CN(CCN(C(=O)CCCC(=O)O)c2ccccc2)CC[C@@]1(C)c1cccc(O)c1` (relative stereo) [Example 20, Trans-5-(phenyl-(2-(4-(3-hydroxyphenyl)-3,4-dimethyl-1-piperidinyl)ethyl)amino)-5-oxopentanoic acid monohydrate], the Ki ([2]; rat whole brain minus cerebellum, pH 7.4, 37° C.) was 0.74 nM.
